According to PubChem BioAssay AID493232 (The Scripps Research Institute Molecular Screening Center, 2011):
The list shows a part of the results, in another mix than the full data. The source made the active and inactive calls. Cut-off read from the data, not from the text of the source: active = inhibition above about 17%; inactive = the rest.

Test: signal inhibition in parental CHO-K1 cells, counter-screen for OX1R antagonist project, cell-based, HTRF (AID 493232);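 note: 0% = agonist challenge with vehicle and 100% = vehicle alone without agonist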
Conditions: HTRF counterscreen, at 6.6 µM, active compounds read high

SMILES | inhibition
Cc1ccc(NCCc2c([N+](=O)[O-])cc([N+](=O)[O-])cc2[N+](=O)[O-])cc1 | active: 32%
O=[N+]([O-])c1cccc2n[nH]nc12 | active: 32%
